{"sequences": {"note": "Amino acid sequences for entries named in this document (tags omitted). Residues count along the entry.", "UniProt P00533, 712-979": "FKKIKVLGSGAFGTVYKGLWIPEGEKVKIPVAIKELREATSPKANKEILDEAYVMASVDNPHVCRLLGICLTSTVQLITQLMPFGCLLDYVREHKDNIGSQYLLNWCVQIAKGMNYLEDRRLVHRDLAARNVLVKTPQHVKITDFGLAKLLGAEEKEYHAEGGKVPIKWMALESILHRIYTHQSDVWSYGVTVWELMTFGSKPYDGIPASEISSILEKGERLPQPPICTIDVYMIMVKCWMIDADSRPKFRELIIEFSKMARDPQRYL"}, "source": "patent US10266513B2", "about": "(Pfizer Inc., priority 2012, dated 2019)", "biological_target": "human EGFR kinase domain (Homo sapiens (Human), UniProt P00533)", "experiment": "Human EGFR LanthaScreen Selectivity Assay (TR-FRET)", "type": "biochemical", "conditions": "20 μM ATP", "data": [{"molecule": "NC(=O)c1c(-c2ccc(Oc3ccc(F)cc3F)cc2)nn([C@@H]2CCCN(C(=O)/C=C/C(F)F)C2)c1N", "note": "[Example 144, 5-amino-1-{(3R)-1-[(2E)-4,4-difluorobut-2-enoyl]piperidin-3-yl}-3-[4-(2,4-difluorophenoxy)phenyl]-1H-pyrazole-4-carboxamide]", "values": [{"measurement": "IC50", "result": 0.274, "unit": "µM"}]}]}
